ChEMBL document CHEMBL4011622, “The Structure-Activity Relationship of a Tetrahydroisoquinoline Class of N-Methyl-d-Aspartate Receptor Modulators that Potentiates GluN2B-Containing N-Methyl-d-Aspartate Receptors” (J Med Chem, 2017)

The chains behind the UniProt entries cited, without tags or fusion partners. Where a name states a change or a piece, a line headed by the entry shows the natural chain unless it says otherwise.
UniProt Q00961: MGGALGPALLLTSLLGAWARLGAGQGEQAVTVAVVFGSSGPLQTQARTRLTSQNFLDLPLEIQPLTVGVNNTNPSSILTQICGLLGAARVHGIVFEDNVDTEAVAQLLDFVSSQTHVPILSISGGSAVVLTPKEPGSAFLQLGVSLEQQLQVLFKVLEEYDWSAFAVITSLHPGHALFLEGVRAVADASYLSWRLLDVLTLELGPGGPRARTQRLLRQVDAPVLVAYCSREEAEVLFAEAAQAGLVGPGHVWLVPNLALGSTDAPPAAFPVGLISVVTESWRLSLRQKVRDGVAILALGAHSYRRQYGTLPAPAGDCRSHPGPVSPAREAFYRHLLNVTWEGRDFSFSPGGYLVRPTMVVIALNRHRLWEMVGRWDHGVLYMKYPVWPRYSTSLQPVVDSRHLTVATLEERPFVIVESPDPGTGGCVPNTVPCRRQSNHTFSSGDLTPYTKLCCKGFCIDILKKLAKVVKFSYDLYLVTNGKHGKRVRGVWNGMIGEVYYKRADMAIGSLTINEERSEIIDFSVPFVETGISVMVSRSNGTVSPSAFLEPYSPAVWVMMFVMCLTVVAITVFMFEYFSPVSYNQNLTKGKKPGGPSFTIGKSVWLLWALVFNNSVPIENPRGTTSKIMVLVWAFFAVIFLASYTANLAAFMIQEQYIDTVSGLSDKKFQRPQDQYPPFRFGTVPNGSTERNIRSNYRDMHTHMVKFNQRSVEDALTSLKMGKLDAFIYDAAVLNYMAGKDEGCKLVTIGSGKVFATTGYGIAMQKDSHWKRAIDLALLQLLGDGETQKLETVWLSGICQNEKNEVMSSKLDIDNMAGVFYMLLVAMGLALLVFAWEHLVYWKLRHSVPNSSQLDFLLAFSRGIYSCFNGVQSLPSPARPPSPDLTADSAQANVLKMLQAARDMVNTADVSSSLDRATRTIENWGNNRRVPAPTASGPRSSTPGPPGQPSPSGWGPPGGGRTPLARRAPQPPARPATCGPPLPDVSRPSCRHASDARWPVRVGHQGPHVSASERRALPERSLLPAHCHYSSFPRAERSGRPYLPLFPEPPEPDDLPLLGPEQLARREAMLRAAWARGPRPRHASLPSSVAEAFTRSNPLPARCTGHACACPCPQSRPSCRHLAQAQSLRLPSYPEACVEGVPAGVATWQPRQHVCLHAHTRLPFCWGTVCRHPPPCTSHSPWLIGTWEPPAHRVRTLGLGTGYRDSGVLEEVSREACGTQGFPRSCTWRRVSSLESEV
UniProt Q62645, whole entry, looked up: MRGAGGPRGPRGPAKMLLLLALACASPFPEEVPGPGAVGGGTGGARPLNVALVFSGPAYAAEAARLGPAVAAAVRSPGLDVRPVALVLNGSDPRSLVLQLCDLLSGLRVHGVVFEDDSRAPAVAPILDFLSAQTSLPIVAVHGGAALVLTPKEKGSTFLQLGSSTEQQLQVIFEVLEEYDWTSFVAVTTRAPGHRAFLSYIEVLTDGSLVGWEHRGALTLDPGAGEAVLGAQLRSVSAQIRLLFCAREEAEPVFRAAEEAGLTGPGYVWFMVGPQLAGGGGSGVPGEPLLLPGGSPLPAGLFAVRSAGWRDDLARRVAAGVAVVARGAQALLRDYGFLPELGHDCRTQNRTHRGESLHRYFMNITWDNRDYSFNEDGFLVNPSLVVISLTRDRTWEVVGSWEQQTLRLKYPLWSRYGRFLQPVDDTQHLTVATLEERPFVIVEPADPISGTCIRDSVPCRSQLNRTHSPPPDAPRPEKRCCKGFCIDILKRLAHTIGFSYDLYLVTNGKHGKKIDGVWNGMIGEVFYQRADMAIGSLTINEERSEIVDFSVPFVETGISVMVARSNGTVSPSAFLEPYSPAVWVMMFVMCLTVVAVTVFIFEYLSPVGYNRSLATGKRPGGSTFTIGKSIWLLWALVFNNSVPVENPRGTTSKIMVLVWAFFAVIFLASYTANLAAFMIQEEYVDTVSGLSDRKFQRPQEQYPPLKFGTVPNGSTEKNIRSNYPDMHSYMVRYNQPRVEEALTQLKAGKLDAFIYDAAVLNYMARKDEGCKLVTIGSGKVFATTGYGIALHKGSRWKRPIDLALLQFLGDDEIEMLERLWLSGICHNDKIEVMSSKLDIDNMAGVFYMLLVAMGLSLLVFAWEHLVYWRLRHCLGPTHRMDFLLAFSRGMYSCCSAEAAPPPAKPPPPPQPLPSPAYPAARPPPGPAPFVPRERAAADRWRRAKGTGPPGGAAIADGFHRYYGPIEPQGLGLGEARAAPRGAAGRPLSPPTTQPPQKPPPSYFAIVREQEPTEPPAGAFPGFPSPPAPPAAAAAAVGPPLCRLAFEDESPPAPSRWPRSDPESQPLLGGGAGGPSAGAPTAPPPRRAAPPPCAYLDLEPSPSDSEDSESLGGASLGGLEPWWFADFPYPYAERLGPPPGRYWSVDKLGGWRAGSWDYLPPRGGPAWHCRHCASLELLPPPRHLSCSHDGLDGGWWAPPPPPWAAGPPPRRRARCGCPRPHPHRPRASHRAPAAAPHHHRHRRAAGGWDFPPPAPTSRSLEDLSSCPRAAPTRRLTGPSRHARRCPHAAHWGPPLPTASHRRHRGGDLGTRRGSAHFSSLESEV

Tests used:
[1] = target: Glutamate NMDA receptor; Grin1/Grin2c (Rattus norvegicus) (UniProt P35439+Q00961); assay: Positive allosteric modulation of recombinant rat GluN1/GluN2C receptor expressed in xenopus laevis oocyte assessed as potentiation of glutamate and glycine-induced current response at 30 uM at holding potential -40mV by two electrode voltage clamp method relative to control
In short: (§1)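 Two-electrode voltage clamp at -40 mV, 23°C, pH 7.4 Ba²⁺ recording solution, on Xenopus oocytes expressing rat NMDA receptors. Currents were evoked by 100 µM glutamate plus 30 µM glycine, with compound co-applied (DMSO 0.05–0.5% final). […] Each compound used at least 4 oocytes from at least 2 frogs.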

[2] = target: Ionotropic glutamate receptor NMDA 1/2D (Rattus norvegicus) (UniProt P35439+Q62645); assay: Positive allosteric modulation of recombinant rat GluN1/GluN2D receptor expressed in xenopus laevis oocyte assessed as potentiation of glutamate and glycine-induced current response at 30 uM at holding potential -40mV by two electrode voltage clamp method relative to control; in short: as §1

Structure (SMILES)	Emax [1]	Activity [2]	Activity [1]
COc1ccc(OCC2c3ccc(OC)cc3CCN2C(=O)c2cccc(Cl)c2)cc1 (centres undefined)	240%	–	–
CCOc1ccc(OCC2c3ccc(OC(C)C)cc3CCN2C(=O)c2cccc(C(F)(F)F)c2)cc1 (centres undefined)	130%	95%	129%
